The chains behind the UniProt entries cited, without tags or fusion partners. Where a name states a change or a piece, a line headed by the entry shows the natural chain unless it says otherwise.
UniProt Q99572: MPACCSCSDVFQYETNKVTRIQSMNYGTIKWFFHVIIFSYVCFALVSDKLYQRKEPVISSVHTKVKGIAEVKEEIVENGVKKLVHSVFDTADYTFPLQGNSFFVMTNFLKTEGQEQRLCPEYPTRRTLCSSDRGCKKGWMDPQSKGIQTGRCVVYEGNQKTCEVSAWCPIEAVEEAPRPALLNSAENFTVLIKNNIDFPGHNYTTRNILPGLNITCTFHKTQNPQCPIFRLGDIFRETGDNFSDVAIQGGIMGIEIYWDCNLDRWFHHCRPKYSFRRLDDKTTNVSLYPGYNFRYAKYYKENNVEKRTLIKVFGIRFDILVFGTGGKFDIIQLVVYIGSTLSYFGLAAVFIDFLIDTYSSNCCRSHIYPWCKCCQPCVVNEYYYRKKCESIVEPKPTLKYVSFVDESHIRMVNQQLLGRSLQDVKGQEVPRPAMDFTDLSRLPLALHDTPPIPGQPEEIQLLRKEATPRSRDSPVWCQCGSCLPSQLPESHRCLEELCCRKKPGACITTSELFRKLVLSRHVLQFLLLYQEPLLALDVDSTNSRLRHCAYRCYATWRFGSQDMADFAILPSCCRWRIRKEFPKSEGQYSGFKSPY
UniProt Q64663: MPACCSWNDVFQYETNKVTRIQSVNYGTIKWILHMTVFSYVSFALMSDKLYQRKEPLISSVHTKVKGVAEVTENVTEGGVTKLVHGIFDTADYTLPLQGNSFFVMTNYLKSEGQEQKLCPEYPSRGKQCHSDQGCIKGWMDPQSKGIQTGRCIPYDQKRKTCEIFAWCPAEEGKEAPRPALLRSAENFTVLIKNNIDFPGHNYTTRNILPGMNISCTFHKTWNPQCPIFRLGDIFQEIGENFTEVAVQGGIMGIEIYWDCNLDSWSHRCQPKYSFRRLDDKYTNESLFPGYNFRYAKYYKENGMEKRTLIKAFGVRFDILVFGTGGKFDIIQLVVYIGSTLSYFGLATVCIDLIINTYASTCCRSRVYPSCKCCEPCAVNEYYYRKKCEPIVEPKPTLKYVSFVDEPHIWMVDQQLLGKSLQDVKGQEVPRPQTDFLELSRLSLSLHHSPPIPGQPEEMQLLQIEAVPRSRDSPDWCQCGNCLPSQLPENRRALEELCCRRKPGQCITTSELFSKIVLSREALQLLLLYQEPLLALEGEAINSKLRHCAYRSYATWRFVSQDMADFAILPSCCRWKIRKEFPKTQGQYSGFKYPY

In patent US9540388B2, “P2X7 modulators” (Janssen Pharmaceutica NV, priority 2013, dated 2017):

Tests used:
P2X7 [1] = target: T1, P2X7 (Homo sapiens (Human), UniProt Q99572); experiment: Ca2+ flux (FLIPR) in 1321N1 cells expressing recombinant human P2X7; type: cell-based; details: FLIPR (human) IC50 (μM), Table 2, additional runs; 250 μM BzATP
rat P2X7 [2] = target: T2, rat P2X7 (Rattus norvegicus (Rat), UniProt Q64663); experiment: Ca2+ flux (FLIPR) in 1321N1 cells expressing recombinant rat P2X7; type: cell-based; details: FLIPR (rat) IC50 (μM), Table 2, additional runs; 250 μM BzATP
P2X7 [3] = target: T1, P2X7; experiment: Radioligand binding, recombinant human P2X7-1321N1 cell membranes, tritiated A-804598
Experimental: P2X7 Antagonism in Recombinant Human P2X7 Cells or Recombinant Rat P2X7 Cells: (a) Ca^2+ Flux and (b) Radioligand Binding
human or rat P2X7-1321N1 cells were collected and frozen @−80° C. On the day of the experiment, cell membrane preparations were made according to standard published methods. The total assay volume was 100 μl:10 μl compound (10×)+(b) 40 μl tracer (2.5×)+50 μl membrane (2×). The tracer used for the assay was tritiated A-804598. The compound can be prepared as described in the literature. […] The assay was terminated by filtration (GF/B filters pre-soaked with 0.3% PEI) and washed with washing buffer (Tris-HCl 50 mM). The IC50 generated in the binding assay was corrected for tracer concentration and affinity of the tracer to derive at the affinity (Ki) of the test compounds. […] Data are analyzed and graphed on Graphpad Prism 5.

rat P2X7 [4] = target: T2, rat P2X7; experiment: Radioligand binding, recombinant rat P2X7-1321N1 cell membranes, tritiated A-804598

Compound	IC50 (P2X7 [1])	IC50 (rat P2X7 [2])	Ki (P2X7 [3])	Ki (rat P2X7 [4])
O=C(c1cccc(C(F)(F)F)c1Cl)N1[C@H]2CCC[C@@H]1c1nnc(-c3ccccn3)n1C2 (single isomer, unassigned) [Example 32, (6S*,10R*)-11-{[2-Chloro-3-(trifluoromethyl)phenyl]carbonyl}-3-pyridin-2-yl-5,6,7,8,9,10-hexahydro-6,10-epimino[1,2,4]triazolo[4,3-a]azocine]	1.51 µM	2.11 µM	–	–
O=C(c1cccc(C(F)(F)F)c1Cl)N1[C@H]2CCC[C@@H]1c1nnc(-c3ccc(F)cn3)n1C2 (single isomer, unassigned) [Example 11, (6S*,10R*)-11-{[2-Chloro-3-(trifluoromethyl)phenyl]carbonyl}-3-(5-fluoropyridin-2-yl)-5,6,7,8,9,10-hexahydro-6,10-epimino[1,2,4]triazolo[4,3-a]azocine]	6.12 µM	–	–	–
O=C(c1cccc(C(F)(F)F)c1Cl)N1[C@H]2CCC[C@@H]1c1nnc(-c3ccccn3)n1C2 (single isomer, unassigned) [Example 33, (6R*,10S*)-11-{[2-Chloro-3-(trifluoromethyl)phenyl]carbonyl}-3-pyridin-2-yl-5,6,7,8,9,10-hexahydro-6,10-epimino[1,2,4]triazolo[4,3-a]azocine]	0.0115 µM	0.0078 µM	0.0113 µM	0.0025 µM
